Consider 1 molecule from US6528630B1 (priority 1997, dated 2003).

Chains of the proteins cited; added tags and fusions are not shown. Residues count along the entry.
UniProt Q01668, 10-2161: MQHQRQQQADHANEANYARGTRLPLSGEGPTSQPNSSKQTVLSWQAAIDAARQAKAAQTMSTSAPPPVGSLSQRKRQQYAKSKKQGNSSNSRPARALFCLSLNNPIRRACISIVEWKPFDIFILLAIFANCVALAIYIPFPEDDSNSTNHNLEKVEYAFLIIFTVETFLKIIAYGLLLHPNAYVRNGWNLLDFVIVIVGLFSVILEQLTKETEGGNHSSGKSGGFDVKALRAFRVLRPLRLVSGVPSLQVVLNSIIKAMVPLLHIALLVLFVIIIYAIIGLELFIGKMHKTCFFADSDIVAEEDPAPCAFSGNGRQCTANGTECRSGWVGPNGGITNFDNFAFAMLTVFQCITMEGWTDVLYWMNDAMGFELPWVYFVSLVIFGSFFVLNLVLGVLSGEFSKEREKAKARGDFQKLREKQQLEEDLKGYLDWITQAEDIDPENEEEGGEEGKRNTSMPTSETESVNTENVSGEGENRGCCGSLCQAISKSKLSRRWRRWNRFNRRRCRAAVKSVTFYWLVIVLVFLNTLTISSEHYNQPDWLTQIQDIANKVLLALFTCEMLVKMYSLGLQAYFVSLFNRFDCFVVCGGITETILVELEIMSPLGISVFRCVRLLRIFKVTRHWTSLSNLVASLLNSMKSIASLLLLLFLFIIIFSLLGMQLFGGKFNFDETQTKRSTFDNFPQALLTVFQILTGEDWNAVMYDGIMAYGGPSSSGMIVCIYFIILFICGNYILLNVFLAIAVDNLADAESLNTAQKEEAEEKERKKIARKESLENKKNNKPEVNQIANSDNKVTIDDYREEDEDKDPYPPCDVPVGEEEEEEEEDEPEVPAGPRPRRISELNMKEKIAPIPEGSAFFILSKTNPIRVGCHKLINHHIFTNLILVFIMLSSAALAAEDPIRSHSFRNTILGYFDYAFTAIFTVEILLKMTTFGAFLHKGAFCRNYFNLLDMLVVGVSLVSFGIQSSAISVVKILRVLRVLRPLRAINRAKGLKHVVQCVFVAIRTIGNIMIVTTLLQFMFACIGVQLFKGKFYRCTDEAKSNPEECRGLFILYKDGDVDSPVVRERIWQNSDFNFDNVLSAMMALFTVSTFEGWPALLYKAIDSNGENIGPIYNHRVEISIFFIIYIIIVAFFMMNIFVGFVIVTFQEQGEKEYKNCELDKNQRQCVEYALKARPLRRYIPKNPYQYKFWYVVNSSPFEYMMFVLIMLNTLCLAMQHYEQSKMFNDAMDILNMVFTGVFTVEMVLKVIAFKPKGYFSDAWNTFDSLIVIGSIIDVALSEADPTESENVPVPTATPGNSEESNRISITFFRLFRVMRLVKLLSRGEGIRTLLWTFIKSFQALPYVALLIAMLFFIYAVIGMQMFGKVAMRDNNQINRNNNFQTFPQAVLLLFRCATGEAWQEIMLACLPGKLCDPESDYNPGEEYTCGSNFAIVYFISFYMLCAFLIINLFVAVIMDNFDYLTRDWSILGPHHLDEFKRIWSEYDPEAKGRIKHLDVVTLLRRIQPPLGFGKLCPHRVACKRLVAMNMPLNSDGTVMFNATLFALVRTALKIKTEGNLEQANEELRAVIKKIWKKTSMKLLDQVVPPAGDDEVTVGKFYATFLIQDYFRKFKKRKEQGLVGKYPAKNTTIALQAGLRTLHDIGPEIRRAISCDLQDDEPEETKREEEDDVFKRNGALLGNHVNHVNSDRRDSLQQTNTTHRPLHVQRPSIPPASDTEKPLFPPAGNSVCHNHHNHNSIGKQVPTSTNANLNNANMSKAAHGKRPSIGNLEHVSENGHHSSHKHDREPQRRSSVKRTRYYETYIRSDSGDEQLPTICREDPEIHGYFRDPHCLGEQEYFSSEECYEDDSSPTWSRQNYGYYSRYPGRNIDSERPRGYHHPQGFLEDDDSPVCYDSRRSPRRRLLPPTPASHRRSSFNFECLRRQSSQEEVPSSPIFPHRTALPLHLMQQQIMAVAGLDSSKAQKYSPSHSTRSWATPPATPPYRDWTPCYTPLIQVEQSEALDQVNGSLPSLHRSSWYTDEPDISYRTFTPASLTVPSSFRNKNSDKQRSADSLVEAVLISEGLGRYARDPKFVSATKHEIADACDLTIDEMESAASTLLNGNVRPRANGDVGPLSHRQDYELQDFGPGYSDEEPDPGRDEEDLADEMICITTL

Molecules are shown by their SMILES.

The target of the assay is human neuronal calcium channel α1D, α2 and β1 subunits (Homo sapiens, UniProt Q01668). Format: cell-based. Also on record: expressed in transfected cells; host or cells: Xenopus laevis oocytes injected with in vitro transcripts.

Take `C[C@@H](O)[C@@H]1NC(=O)[C@H](Cc2ccc(O)cc2)NC(=O)[C@@H]2C[C@@H](O)CN2C(=O)[C@H](CC(N)=O)NC(=O)[C@@H]2CSSC[C@@H]3NC(=O)[C@H](CO)NC(=O)[C@H](CO)NC(=O)CNC(=O)[C@@H]4C[C@@H](O)CN4C(=O)[C@H](CO)NC(=O)[C@H](CCCCN)NC(=O)[C@@H](N)CSSC[C@H](NC(=O)[C@H](CSSC[C@@H](C(=O)N[C@@H](Cc4ccc(O)cc4)C(N)=O)NC(=O)[C@H](CCCNC(=N)N)NC(=O)[C@H](CCCCN)NC1=O)NC(=O)[C@H](CC(N)=O)NC(=O)[C@H](Cc1ccc(O)cc1)NC(=O)[C@H](CO)NC(=O)[C@H]([C@@H](C)O)NC(=O)[C@@H]1C[C@@H](O)CN1C(=O)[C@H](CO)NC3=O)C(=O)N[C@@H](CCCNC(=N)N)C(=O)N[C@@H](CO)C(=O)N2` [ω-CgTX]: the reversibility of block result is on record as “reversibly”.
